Source: ChEMBL document CHEMBL5512685, “Discovery of a Promising CBP/p300 Degrader XYD129 for the Treatment of Acute Myeloid Leukemia” (J Med Chem, 2024)

By UniProt entry, the sequences of proteins in these tests, tags left out.
UniProt Q92793, whole entry: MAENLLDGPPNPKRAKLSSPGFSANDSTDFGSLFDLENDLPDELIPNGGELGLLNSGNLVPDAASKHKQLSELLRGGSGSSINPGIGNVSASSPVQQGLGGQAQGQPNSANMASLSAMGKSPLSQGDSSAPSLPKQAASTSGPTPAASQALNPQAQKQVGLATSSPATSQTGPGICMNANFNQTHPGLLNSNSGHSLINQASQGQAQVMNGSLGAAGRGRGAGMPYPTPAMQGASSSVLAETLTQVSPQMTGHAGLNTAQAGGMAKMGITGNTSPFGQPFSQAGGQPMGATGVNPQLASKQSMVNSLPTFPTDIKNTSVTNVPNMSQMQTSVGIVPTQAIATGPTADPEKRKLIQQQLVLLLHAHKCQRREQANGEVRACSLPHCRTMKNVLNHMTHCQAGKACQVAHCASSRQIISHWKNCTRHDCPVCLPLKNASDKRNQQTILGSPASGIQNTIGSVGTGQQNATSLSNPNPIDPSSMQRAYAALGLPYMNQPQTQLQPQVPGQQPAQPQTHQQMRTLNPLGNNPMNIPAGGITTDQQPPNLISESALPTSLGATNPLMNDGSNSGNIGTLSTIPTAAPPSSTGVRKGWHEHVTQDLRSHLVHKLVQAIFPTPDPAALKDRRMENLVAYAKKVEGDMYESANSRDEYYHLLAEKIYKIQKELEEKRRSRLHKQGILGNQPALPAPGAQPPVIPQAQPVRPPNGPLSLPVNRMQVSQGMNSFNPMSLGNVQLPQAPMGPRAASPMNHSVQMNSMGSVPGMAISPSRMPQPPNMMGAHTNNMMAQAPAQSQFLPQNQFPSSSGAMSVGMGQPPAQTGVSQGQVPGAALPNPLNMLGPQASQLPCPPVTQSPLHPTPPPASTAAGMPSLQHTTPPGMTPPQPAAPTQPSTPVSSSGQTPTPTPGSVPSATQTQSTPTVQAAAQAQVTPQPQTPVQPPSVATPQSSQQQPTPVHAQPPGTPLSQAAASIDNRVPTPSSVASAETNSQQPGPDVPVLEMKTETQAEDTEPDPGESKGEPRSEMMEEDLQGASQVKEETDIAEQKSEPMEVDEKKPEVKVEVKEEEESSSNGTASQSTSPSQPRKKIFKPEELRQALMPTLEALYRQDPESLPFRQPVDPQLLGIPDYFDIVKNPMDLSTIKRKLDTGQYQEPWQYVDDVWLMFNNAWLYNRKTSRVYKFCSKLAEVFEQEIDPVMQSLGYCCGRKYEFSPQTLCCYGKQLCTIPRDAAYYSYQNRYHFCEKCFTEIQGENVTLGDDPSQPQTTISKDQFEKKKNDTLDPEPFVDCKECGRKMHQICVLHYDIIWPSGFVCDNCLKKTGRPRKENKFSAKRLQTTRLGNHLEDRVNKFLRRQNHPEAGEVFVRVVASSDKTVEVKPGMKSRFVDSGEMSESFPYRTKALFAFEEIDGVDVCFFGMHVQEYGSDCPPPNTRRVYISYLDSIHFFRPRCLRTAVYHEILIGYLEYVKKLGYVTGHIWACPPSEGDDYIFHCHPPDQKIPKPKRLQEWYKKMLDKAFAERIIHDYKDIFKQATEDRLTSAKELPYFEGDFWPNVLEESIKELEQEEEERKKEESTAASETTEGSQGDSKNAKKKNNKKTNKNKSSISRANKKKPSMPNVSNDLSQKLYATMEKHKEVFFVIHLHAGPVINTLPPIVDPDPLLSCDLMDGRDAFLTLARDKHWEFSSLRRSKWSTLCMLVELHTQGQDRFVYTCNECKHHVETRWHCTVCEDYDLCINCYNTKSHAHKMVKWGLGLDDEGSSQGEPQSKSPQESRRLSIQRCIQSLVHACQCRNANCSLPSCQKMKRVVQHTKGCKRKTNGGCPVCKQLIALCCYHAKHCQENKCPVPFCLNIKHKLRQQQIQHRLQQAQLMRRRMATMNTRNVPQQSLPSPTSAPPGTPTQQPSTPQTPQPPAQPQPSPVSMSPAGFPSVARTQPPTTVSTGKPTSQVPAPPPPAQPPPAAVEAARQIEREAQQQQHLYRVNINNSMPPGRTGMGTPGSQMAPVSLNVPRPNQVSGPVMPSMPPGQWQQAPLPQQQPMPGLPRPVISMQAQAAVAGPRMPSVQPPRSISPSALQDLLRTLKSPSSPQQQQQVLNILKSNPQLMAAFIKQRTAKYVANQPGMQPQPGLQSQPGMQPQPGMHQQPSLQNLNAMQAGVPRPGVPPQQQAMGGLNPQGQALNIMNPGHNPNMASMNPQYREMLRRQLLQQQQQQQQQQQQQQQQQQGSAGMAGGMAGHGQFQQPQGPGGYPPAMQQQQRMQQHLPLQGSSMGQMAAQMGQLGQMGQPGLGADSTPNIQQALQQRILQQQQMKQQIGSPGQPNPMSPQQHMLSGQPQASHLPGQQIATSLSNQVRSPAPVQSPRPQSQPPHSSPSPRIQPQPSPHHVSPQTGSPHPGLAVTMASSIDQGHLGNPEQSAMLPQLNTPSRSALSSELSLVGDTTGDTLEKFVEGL
UniProt Q09472, whole entry: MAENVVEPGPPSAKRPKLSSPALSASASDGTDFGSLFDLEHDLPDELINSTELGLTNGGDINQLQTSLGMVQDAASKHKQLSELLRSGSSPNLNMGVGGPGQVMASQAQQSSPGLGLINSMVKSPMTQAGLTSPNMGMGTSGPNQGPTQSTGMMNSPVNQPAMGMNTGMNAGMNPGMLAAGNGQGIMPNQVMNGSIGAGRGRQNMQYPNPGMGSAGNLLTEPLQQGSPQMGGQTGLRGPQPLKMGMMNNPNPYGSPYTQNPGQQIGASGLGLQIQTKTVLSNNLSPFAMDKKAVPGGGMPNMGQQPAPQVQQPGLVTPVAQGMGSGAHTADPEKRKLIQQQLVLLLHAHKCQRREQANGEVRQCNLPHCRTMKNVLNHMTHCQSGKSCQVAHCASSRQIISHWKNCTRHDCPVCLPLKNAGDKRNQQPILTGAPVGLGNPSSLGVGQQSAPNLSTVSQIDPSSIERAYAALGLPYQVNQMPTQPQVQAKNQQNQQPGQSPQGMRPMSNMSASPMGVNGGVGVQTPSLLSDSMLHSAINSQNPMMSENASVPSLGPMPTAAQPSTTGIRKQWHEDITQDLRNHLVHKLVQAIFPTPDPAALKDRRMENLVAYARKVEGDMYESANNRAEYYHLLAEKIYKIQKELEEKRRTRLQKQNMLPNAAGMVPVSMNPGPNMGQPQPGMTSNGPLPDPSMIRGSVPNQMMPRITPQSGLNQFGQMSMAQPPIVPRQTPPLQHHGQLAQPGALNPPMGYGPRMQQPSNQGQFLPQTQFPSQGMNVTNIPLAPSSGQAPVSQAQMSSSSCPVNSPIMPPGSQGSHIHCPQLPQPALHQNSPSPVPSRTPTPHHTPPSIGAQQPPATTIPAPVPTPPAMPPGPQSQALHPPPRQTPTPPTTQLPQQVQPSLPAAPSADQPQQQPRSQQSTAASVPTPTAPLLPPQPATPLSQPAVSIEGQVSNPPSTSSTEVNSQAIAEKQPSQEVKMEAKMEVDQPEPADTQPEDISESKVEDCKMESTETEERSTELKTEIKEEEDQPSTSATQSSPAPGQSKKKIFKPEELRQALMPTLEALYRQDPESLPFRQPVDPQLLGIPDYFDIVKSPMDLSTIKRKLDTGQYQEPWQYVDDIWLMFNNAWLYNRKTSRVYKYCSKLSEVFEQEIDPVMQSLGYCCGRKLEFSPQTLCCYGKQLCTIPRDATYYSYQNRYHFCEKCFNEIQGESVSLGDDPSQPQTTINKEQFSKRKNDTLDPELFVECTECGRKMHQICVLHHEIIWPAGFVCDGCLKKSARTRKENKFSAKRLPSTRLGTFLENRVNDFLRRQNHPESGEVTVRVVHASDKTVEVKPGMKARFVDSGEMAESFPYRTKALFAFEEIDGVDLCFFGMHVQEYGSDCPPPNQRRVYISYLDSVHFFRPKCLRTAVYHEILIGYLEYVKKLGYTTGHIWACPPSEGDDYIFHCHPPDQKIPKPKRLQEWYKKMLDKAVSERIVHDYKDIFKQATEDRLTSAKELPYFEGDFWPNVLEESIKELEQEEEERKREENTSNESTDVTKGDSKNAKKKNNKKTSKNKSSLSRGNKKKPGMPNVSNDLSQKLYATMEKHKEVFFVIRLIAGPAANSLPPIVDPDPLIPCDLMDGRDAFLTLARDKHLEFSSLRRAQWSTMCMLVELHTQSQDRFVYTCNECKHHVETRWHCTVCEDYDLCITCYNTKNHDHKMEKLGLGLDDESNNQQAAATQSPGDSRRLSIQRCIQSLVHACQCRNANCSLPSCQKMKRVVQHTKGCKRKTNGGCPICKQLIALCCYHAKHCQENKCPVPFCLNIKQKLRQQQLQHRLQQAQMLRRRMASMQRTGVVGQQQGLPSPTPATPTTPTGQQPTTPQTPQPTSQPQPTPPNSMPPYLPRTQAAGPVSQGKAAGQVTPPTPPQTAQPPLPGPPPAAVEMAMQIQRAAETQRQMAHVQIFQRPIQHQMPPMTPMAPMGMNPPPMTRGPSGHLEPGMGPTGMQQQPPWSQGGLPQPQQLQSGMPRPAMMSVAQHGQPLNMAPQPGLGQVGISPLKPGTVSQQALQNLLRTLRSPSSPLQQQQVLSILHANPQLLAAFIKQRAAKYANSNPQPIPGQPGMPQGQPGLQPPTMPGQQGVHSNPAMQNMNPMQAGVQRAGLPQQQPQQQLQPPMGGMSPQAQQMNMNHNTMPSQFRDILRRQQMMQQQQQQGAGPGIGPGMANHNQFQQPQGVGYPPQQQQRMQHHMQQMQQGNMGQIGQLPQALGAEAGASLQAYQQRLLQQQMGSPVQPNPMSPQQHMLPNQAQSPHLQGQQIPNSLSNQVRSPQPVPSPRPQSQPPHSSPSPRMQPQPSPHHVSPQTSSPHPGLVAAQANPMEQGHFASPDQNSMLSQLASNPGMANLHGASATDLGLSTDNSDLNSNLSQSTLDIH

Assays:
CREB-binding protein = CREB-binding protein (Homo sapiens, UniProt Q92793); assay: Inhibition of C-terminal biotinylated tetra-acetylated histone peptide H4 binding to His6-fused human CBP bromodomain (R1081 to G1197 residues) incubated for 1 hrs by HTRF assay
[1] = target: Histone acetyltransferase p300 (Homo sapiens, UniProt Q09472); assay: Inhibition of C-terminal biotinylated tetra-acetylated histone peptide H4 binding to His6-fused human p300 bromodomain (A1040 to G1161 residues) incubated for 1 hrs by HTRF assay

CO[C@H]1CC[C@H](n2c([C@@H]3CCCC(=O)N3c3ccc(F)c(F)c3)nc3cc(-c4c(C)noc4C)ccc32)CC1 [INOBRODIB]
IC50 (CREB-binding protein): 3 nM
IC50 [1]: 5 nM
